Results on one substance are retold here after patent US9539237B2, “Compositions and methods for drug-sensitization or inhibition of a cancer cell” (The Texas A&M University System, priority 2012, dated 2017).

The chains behind the UniProt entries cited, without tags or fusion partners.
UniProt P08183, whole entry: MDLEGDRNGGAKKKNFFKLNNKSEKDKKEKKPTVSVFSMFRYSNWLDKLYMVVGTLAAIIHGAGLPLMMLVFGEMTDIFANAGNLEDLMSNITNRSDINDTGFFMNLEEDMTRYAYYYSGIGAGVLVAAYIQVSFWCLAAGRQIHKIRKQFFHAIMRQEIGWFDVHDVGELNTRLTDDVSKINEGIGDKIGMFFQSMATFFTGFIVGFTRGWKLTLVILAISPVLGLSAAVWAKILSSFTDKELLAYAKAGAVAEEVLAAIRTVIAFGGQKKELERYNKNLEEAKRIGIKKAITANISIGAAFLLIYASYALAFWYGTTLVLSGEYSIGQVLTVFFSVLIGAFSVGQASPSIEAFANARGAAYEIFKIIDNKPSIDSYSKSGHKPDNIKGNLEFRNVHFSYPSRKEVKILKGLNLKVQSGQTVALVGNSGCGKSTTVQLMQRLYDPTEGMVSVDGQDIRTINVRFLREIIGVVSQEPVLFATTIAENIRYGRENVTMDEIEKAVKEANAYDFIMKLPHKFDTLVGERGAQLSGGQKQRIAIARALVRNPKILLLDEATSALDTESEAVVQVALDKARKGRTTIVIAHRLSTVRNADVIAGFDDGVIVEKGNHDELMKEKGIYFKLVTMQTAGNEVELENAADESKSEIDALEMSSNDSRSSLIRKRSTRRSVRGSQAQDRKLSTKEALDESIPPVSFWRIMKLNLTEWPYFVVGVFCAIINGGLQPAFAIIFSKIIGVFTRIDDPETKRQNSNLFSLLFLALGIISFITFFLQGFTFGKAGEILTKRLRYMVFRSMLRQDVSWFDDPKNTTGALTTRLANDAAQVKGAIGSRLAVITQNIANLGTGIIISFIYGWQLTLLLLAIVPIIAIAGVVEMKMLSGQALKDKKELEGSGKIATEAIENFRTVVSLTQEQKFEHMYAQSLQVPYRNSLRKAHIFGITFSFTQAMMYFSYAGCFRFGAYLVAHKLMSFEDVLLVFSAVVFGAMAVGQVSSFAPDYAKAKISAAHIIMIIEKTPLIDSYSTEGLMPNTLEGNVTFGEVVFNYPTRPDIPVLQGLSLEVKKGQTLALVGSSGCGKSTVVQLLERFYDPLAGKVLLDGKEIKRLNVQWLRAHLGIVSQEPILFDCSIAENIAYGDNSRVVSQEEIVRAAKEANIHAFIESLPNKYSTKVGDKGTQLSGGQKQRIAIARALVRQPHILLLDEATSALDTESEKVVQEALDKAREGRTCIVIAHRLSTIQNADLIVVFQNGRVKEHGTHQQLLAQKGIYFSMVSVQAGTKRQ

Data set [1] has as its target T1, ABCB1 pumps (Homo sapiens, UniProt P08183). Particulars: NCI/ADR-RES and G3 cells.
Data set [2] addresses T1, ABCB1 pumps. In words: Calcein-AM efflux assay.

Take “4-deoxy-3,4[2-spiro-[1-(isobutyloxycarbonyl)-piperidin-4-yl]]-(1H)-imidazo-(2,5-dihydro)rifamycin S [RTI-79]”: the “Inhibition of efflux pumps” value on ABCB1 pumps [1] is reported as “clear inhibition”. For the same substance, the “Inhibition of ABCB1 compared with additional rifabutin derivatives” value at ABCB1 pumps [2] is on record as “strongest inhibitor”.
